ALDH1A1 inh: inhibitors of human aldehyde dehydrogenase 1A1 | Purified ALDH1A1, NADH fluorescence, propionaldehyde substrate | Potency, µM (titrated, usually from 75.3 µM), inactives show at the top dose activity, negative = inhibition, actives largely listed as inhibitors | 7.3% of 220,000 active | AID 1030; active = well fitted inhibition curve with a large enough effect, not every such curve was filed as active; inconclusive = small, poorly fitted or top-dose-only effect, or another doubt; inactive = no such curve, though single readings can be large or run the other way;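 also: potency is read from the fitted curve at half-maximal effect; plate controls were no enzyme wells and a reference inhibitor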
Lamin A splicing: LMNA splicing modulation. Potency, µM (titrated, usually from 46.1 µM), without a hit: top-dose ratio change, negative = inhibition, usual class: inhibitors. HeLa LMNA splicing GFP/RFP minigene ratio, 48 h. AID 1487. 0.01% of 200,000 active; active = well fitted inhibition curve with a large enough effect in the signal ratio, with a control signal flat, not every such curve was filed as active; inconclusive = small, poorly fitted or top-dose-only effect, or effect the other way, or a change in a side signal; the % refers to the signal ratio; also: potency is read from the fitted curve at half-maximal effect; % is scaled to controls: 0 for no effect and ±100 for the full control effect
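S3 HeLa stable clones carrying a lamin A-EGFP splicing minigene plus DsRed2 were seeded at 600 cells/well in Opti-MEM with 2% FBS, pin-dosed and incubated 48 h at 37°C. Acumen cytometry (488 nm) gave the GFP/RFP total-intensity ratio.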
KDM4E inh: blocks human JMJD2E demethylase activity; B2RXH2; JMJD2E catalytic domain, FDH-coupled NADH fluorescence (FDH is formaldehyde dehydrogenase); Potency, µM (titrated, usually from 57.1 µM), for inactives: at the top dose activity change, negative = inhibition, actives largely listed as inhibitors; 1.6% of 230,000 active; AID 2147; active = well fitted inhibition curve with a large enough effect, not every such curve was filed as active; inconclusive = small, poorly fitted or top-dose-only effect, or another doubt; inactive = no such curve, though single readings can be large or run the other way;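 also: potency is read from the fitted curve at half-maximal effect; 0% = wells with enzyme and -100% = buffer wells without enzyme; nearly all actives have a fitted effect of over 50% in size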
G9a block: G9a (human) methyltransferase inhibition. Potency, µM (highest dose often 102 µM), inactives show at the top dose activity, negative = inhibition, hits mostly inhibitors. G9a H3K9 monomethylation, AlphaScreen, 2 h. Q96KQ7. 8.8% of 350,000 active; also: potency is read from the fitted curve at half-maximal effect; % is scaled to controls: 0 for no effect and ±100 for the full control effect; nearly all actives have a fitted effect of over 75% in size
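G9a (20 nM) preincubated 15 min RT with compounds, then 500 nM biotinylated H3K9 peptide and 20 uM SAM added; 2 h RT reaction. Monomethyl-H3K9 product detected by AlphaScreen with anti-H3K9me1 antibody, streptavidin donor and anti-rabbit IgG acceptor beads.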
miR-21 reporter: miR-21 reporter, rising signal | HeLa miR-21 FLuc reporter, luciferase, 48 h | Potency, µM (top dose mostly 38.3 µM), inactives show at the highest dose reporter change, positive = more light | 340,000 tested, under 10 active | AID 2288; active = well fitted rising curve with a large enough effect; inconclusive = small, poorly fitted or top-dose-only effect; inactive = no such curve, though single readings can be large or run the other way;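 note: % of control where 0% means no effect; miR-21 action dims this reporter so a rising signal means less miR-21 action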
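HeLa cells endogenously expressing miR-21, stably carrying CMV-driven firefly luciferase with a downstream miR-21 binding site, 2000 cells/well. Titrations up to approximately 40 uM, 48 hours; luciferase luminescence read.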
Sfp PPTase inh: inhibitors of Bacillus subtilis Sfp phosphopantetheinyl transferase; Q9F4F7; Biochemical Sfp PPTase activity, qHTS; Potency, µM, inactives show max response, negative = inhibition, actives largely listed as inhibitors; hit rate 3.5% among 310,000; AID 1490; active means well fitted inhibition curve with a large enough effect; inconclusive means small, poorly fitted or top-dose-only effect, or another doubt; inactive means no such curve, though single readings can be large or run the other way;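 further: the enzyme is Sfp with the accession as filed and its product quenches rhodamine fluorescence; potency means the concentration at half of the fitted maximal effect; 0% = enzyme reaction without inhibitor and -100% = no enzyme wells; top concentration of the series not given in the record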
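Reaction rates are the 30-min fluorescence difference (ex 525, em 598 nm) in wells containing 15 nM Sfp, 5 uM rhodamine-CoA and 12.5 uM BHQ-2-YbbR at pH 7.6 with 10 mM MgCl2.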
* marks the source's active call; other numbers are inactive results; ? = inconclusive; nt = no result; [ ] = dose if it differs, or a comment. Most compounds without a hit are left out; they make up all but 13% or so of the library. Unless noted, calls follow the shape of the dose curve; as a rule, active = well fitted curve in the direction sought with a large enough effect; inconclusive = small, poorly fitted or top-dose-only effect, or another doubt; inactive = no such curve, though single readings can be large; an effect the other way counts as inactive or inconclusive.

| item | mol | ALDH1A1 inh | Lamin A splicing | KDM4E inh |
| --- | --- | --- | --- | --- |
| 1 | Cc1cc(/C=C2/C(=O)NN(c3ccccc3)C2=O)c(C)n1-c1cccc(O)c1 | ? | -2% | ? |
| 2 | O=C1NN(c2ccc(Br)cc2)C(=O)/C1=C\c1ccc(O)cc1O | nt | nt | nt |
| 3 | Cc1cc(/C=C2\SC(=S)NC2=O)c(C)n1-c1cccc(O)c1 | ? | nt | -11% |
| 4 | CCOC(=O)c1c(-c2ccccc2)oc2ccc(O)c(CN3CCCC3)c12 | -12% | -5% | 1% |
| 5 | CCOC(=O)c1c(-c2ccccc2)oc2ccc(O)c(CN(C)C)c12 | -6% | -11% | 2% |
| 6 | COc1ccc(NC(=O)c2c(C)oc3ccc(O)c(CN4CCOCC4)c23)cc1 | nt | nt | nt |
| 7 | COc1ccc(C(=O)c2c(C)oc3ccc(O)c(CN4CCOCC4)c23)cc1 | 8% | -3% | -5% |
| 8 | CC(=O)OCC(NC(=O)C1CCCN1C(=O)OC(C)(C)C)C1OC(n2cc(F)c(=O)[nH]c2=O)C(OC(C)=O)C1OC(C)=O (stereo not drawn) | nt | nt | nt |

| item | G9a block | miR-21 reporter | Sfp PPTase inh |
| --- | --- | --- | --- |
| 1 | 22µM* | -21% | -19% |
| 2 | nt | -13% | 14% |
| 3 | 40µM* | -37% | ? |
| 4 | 45µM* | -14% | 1% |
| 5 | ? | 6% | 5% |
| 6 | -4%[59 µM] | 1% | nt |
| 7 | 45µM* | 18% | 56µM* |
| 8 | nt | nt | 8% |

Other records follow.
| item | mol | ALDH1A1 inh | Lamin A splicing | KDM4E inh |
| --- | --- | --- | --- | --- |
| 9 | COc1ccc(OC)c(S(=O)(=O)Nc2cc3c(cc2N2CCCC2)n(C)c(=O)c(=O)n3C)c1 | nt | nt | nt |
| 10 | Cn1c(=O)c(=O)n(C)c2cc(N3CCCCC3)c(NS(=O)(=O)c3ccc([N+](=O)[O-])cc3)cc21 | nt | nt | nt |
| 11 | Cn1c(=O)c(=O)n(C)c2cc(N3CCOCC3)c(NS(=O)(=O)c3ccc(Br)cc3)cc21 | nt | nt | nt |
| 12 | COc1ccc(OC)c(NS(=O)(=O)c2ccc3c(c2)n(C)c(=O)n3C)c1 | -10% | 15% | 0% |
| 13 | Cn1c(=O)c(=O)n(C)c2cc(N3CCCC3)c(NS(=O)(=O)c3ccc(F)cc3)cc21 | nt | nt | nt |
| 14 | COc1ccc(C(=O)c2c(-c3cccc(C)c3)oc3ccc(N4CCOCC4)cc23)cn1 | nt | nt | nt |
| 15 | COc1ccc(-n2c(=O)c3ccc(C(=O)NCc4ccc(C)cc4)cc3n(Cc3ccc(Cl)cc3)c2=O)cc1 | nt | nt | nt |
| 16 | COc1ccc(C(=O)Oc2ccc(C(c3c(C)[nH][nH]c3=O)c3c(C)[nH][nH]c3=O)cc2)cc1 | nt | nt | nt |

| item | G9a block | miR-21 reporter | Sfp PPTase inh |
| --- | --- | --- | --- |
| 9 | 10µM* | 0% | -5% |
| 10 | 32µM* | 0% | -23% |
| 11 | 35µM* | -1% | 45µM* |
| 12 | -7%[12.7 µM] | -6% | 2% |
| 13 | 40µM* | -1% | 1% |
| 14 | -15% | -4% | -12% |
| 15 | -48%[59 µM] | -2% | nt |
| 16 | -30%[59 µM] | -27% | nt |

Next part.
| item | mol | ALDH1A1 inh | Lamin A splicing | KDM4E inh |
| --- | --- | --- | --- | --- |
| 17 | CCOCCCNc1ncnc2c1nc1n2CCCC1 | nt | nt | nt |
| 18 | CCC1(C)CC(=O)N(c2ccc(C(=O)O)c(O)c2)C1=O (stereo not drawn) | ? | -1% | ? |
| 19 | CCC1(C)CC(=O)N(c2ccc(F)c(Cl)c2)C(=O)C1 | nt | nt | nt |
| 20 | NC(=O)[C@@H]1CCCNc2c(F)cc([N+](=O)[O-])cc2C(=O)N[C@@H](CO)C(=O)N[C@@H](Cc2ccc(O)cc2)C(=O)N1 | 1% | -1% | -9% |
| 21 | C[C@@H]1NC(=O)[C@H](CCC(=O)O)NC(=O)c2cc([N+](=O)[O-])cc(F)c2NCCC[C@@H](C(N)=O)NC1=O | -11% | -2% | 5% |
| 22 | NC(=O)CC[C@@H]1NC(=O)C(Cc2ccc(O)cc2)NC(=O)c2cc([N+](=O)[O-])cc(F)c2NCCC[C@@H](C(N)=O)NC1=O (stereo partly drawn) | 3% | -2% | 1% |
| 23 | Cc1ccc(C(=O)N[C@@H](Cc2ccccc2)C(=O)N2CCC3(CC2)NCCc2[nH]cnc23)cc1C | nt | nt | nt |
| 24 | C[C@H](NC(=O)c1ccc(C(C)(C)C)cc1)C(=O)N1CCC2(CC1)NCCc1[nH]cnc12 | nt | nt | nt |

| item | G9a block | miR-21 reporter | Sfp PPTase inh |
| --- | --- | --- | --- |
| 17 | 44% | -7% | 2% |
| 18 | 50µM* | -3% | 24% |
| 19 | -8% | 0% | 6% |
| 20 | ? | -4% | -4% |
| 21 | 79µM* | -7% | 7% |
| 22 | 50µM* | -9% | -28% |
| 23 | 79µM* | 0% | 6% |
| 24 | nt | -2% | 4% |

(continued)
| item | mol | ALDH1A1 inh | Lamin A splicing | KDM4E inh |
| --- | --- | --- | --- | --- |
| 25 | Cc1ccc(C)c(CN2C(=O)c3ccccc3S(=O)(=O)c3ccc(C(=O)N4CCN(c5ccccc5)CC4)cc32)c1 | nt | nt | nt |
| 26 | COc1cccc(CNCCNC(=O)c2ccco2)c1OC | ? | 1% | ? |
| 27 | COc1cc(CNCc2ccco2)ccc1OCc1ccccc1 | -9% | ? | -12% |
| 28 | COc1ccc(OC)c(CNCCNC(=O)c2ccco2)c1 | ? | -3% | -14% |
| 29 | COc1cc(OC)c(OC)cc1CNCCNC(=O)c1ccco1 | nt | nt | nt |
| 30 | COc1cc(OC)c(OC)cc1CNCc1ccco1 | nt | nt | nt |
| 31 | COc1cccc(CNCc2ccco2)c1O | nt | nt | nt |
| 32 | O=S(=O)(Nc1ccc(-c2ccc(N3CCCCCC3)nn2)cc1)c1cccc(C(F)(F)F)c1 | nt | -14%[46 µM] | nt |

| item | G9a block | miR-21 reporter | Sfp PPTase inh |
| --- | --- | --- | --- |
| 25 | ? | 3% | nt |
| 26 | 11µM* | 1% | ? |
| 27 | 35µM* | -23% | 7% |
| 28 | ? | -6% | -29% |
| 29 | 10µM* | 8% | -1% |
| 30 | 28µM* | -2% | -14% |
| 31 | nt | 0% | ? |
| 32 | -3%[59 µM] | 0% | nt |

Continuation:
| item | mol | ALDH1A1 inh | Lamin A splicing | KDM4E inh |
| --- | --- | --- | --- | --- |
| 33 | Cn1cc(C(=O)N/N=C/c2cccc([N+](=O)[O-])c2)c2ccccc21 | nt | nt | -2% |
| 34 | CCN(CC)c1ccc(/C=N\NC(=O)c2cccc3cc[nH]c23)cc1 | nt | nt | ? |
| 35 | CC(CCN(C)C)OC(=O)c1ccc(C(C)c2ccccc2)o1 (stereo not drawn) | 40µM* | ? | 0% |
| 36 | Cc1ccc(S(=O)(=O)N2CCN(C(=O)CSc3nnnn3C)CC2)c(C)c1 | 25µM* | nt | -4% |
| 37 | Cc1ccc(S(=O)(=O)N2CCN(C(=O)CSc3nc(N)cc(=O)[nH]3)CC2)c(C)c1 | -2% | -14%[46 µM] | 3% |
| 38 | Cc1ccc(C)c(S(=O)(=O)N2CCN(C(=O)CSC(=S)N3CCCC3)CC2)c1 | nt | nt | nt |
| 39 | O=C1CC(c2ccccc2)=Nc2ccccc2N1 | ? | 4% | 5% |
| 40 | O=C1CC(/C=C/c2ccncc2)=Nc2ccccc2N1 | -9% | nt | -29% |

| item | G9a block | miR-21 reporter | Sfp PPTase inh |
| --- | --- | --- | --- |
| 33 | 3% | -5% | 13% |
| 34 | 18%[12.7 µM] | 5% | 5% |
| 35 | ? | -14% | 10% |
| 36 | -12% | -7% | 3% |
| 37 | -45% | -5% | 6% |
| 38 | 50µM* | nt | nt |
| 39 | 3%[12.7 µM] | -11% | -11% |
| 40 | 40µM* | 14% | 4% |

Exported with bars between the fields: 3 of the compounds above.
No. | molecule | ALDH1A1 inh | Lamin A splicing | KDM4E inh | G9a block | miR-21 reporter | Sfp PPTase inh
33 | Cn1cc(C(=O)N/N=C/c2cccc([N+](=O)[O-])c2)c2ccccc21 | nt | nt | -2% | 3% | -5% | 13%
34 | CCN(CC)c1ccc(/C=N\NC(=O)c2cccc3cc[nH]c23)cc1 | nt | nt | ? | 18%[12.7 µM] | 5% | 5%
35 | CC(CCN(C)C)OC(=O)c1ccc(C(C)c2ccccc2)o1 (stereo not drawn) | 40µM* | ? | 0% | ? | -14% | 10%

Next part.
| item | mol | ALDH1A1 inh | Lamin A splicing | KDM4E inh |
| --- | --- | --- | --- | --- |
| 41 | CCc1cc(=O)oc2c(C)c3c(cc12)CN(CCc1ccccc1OC)CO3 | nt | nt | nt |
| 42 | Cc1cc(Cl)ccc1NC(=O)CCC(=O)N/N=C/c1cc([N+](=O)[O-])ccc1O | 0% | nt | -2% |
| 43 | Cc1cc(C)n(CC(=O)N/N=C/c2cc([N+](=O)[O-])ccc2O)n1 | -7% | ? | 5% |
| 44 | Nc1nnnn1CC(=O)N/N=C/c1cc([N+](=O)[O-])ccc1O | ? | nt | 7.9µM* |
| 45 | Nc1nnc(CC(=O)N/N=C\c2cc([N+](=O)[O-])ccc2O)s1 | -8% | -9% | 14µM* |
| 46 | CN(Cc1cnccn1)C(=O)CC1C(=O)NCCN1Cc1cccc(F)c1 (stereo not drawn) | nt | nt | nt |

| item | G9a block | miR-21 reporter | Sfp PPTase inh |
| --- | --- | --- | --- |
| 41 | 9%[59 µM] | -8% | nt |
| 42 | -1% | 0% | -11% |
| 43 | -14% | 1% | 13% |
| 44 | 24% | 1% | -35% |
| 45 | ? | -5% | 4% |
| 46 | nt | 3% | -1% |

Screening data deposited in PubChem by National Center for Advancing Translational Sciences (NCATS).
